# Ab-14 heavy chain CDR variants: yeast mating affinities

Values reported by Engelhart et al. 2022, doi:10.1038/s41597-022-01779-4 (FLAb copy).

Antigen: PDVDLGDISGINAS, a 14-residue peptide of the SARS-CoV-2 spike HR2 region.

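The parent was found by panning a naive human phage display library on the peptide. AAYL49 was designed without a model: most single CDR substitutions and a random sample of double and triple ones. In AlphaSeq, yeast of one mating type display the scFv and yeast of the other type display the target. Pairs that bind mate more often; barcode pairs of the diploids are counted by sequencing. A regression on co-assayed BCL2-family reference pairs converts the normalised counts of each replicate to an apparent Kd. Mating was done three times.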

Parent scFv Ab-14: VH joined to VL by a 15-residue (Gly4Ser)3 linker. Changes lie in the heavy chain CDRs alone.
VH: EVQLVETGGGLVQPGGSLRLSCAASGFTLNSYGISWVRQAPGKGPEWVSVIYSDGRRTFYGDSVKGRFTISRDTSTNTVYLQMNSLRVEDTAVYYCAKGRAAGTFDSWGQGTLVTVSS
VL: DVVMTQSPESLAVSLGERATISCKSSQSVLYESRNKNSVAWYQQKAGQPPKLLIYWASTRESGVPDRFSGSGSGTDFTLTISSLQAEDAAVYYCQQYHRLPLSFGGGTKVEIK

Variants are written as CDR1, CDR2 and CDR3 of the heavy chain (limits as in the source). Parent: GFTLNSYGIS, VIYSDGRRTFYGDSVK, GRAAGTFDS.
Affinities are written as log10 Kd with Kd in nM; a lower number is a better binder.
A mean of the replicates is given; it leaves out those without a signal.
"nd" means that the variant was in the library but no mating with the target was seen in any replicate; the authors take this as a sign of poor binding, and no number exists.
As a blank, each scFv also met three strains without target: over library AAYL49, 15% of these pairings were detected, typically at 4.06 and seldom below 2.83.
For reference, the parent read 0.65 as the reference entry and 4.11 (one replicate of three) as a member of this library.

nd (0 of 3 replicates): GFTLNYYGIS | VIYSDGRRVFYGDSVK | HRAAGTFDS.
nd (0 of 3 replicates): GFTLNSYRIS | VNYSDGRRTFYGDSVK | GRAAGTFDS.
3.91 (2 of 3 replicates): GFTLNSAGES | VIYSDGRRTFYGDSVK | GRAAGTFDK.
5.10 (3 of 3 replicates): GFTLNTYGIS | SIQSDGRRTFYGDSVK | GRAAGTFDS.
nd (0 of 3 replicates): GFTLNSYGIV | VIYSDGRRTFYGDSVK | GKAGGTFDS.
nd (0 of 3 replicates): GFTLNSYGIS | VIYSDGRRTFLGDSVK | GRAAGCKDS.
nd (0 of 3 replicates): GFTLNSYGLS | VIYSDGRRTHNGDSVK | GRAAGTFDS.
3.74 (1 of 3 replicates): GFTLNSYGMS | VIPSDGRRTFYGDSVK | GWAAGTFDS.
nd (0 of 3 replicates): GFTLNSYGIS | VINSDGHRTFYGDSVK | GRAAGTFPS.
0.52 (3 of 3 replicates): GFTLNSYGIS | VIYSDGRRTFYIDSVK | GYAAGTFDS.
4.63 (2 of 3 replicates): GFTLNSYGIS | VSYSDGRRTFYGDSTK | GRAAGRFDS.
3.85 (2 of 3 replicates): GFTLNSYGIS | VIYSDGRRTKYGDSVK | GRAAETADS.
0.68 (3 of 3 replicates): GLVLNSYGIS | VIYSDGRRTFYGDSVK | GRAGGTFDS.
nd (0 of 3 replicates): GFELNSYGIS | AIYSDGRRTFYGDSVK | GRAAGTFDM.
nd (0 of 3 replicates): GFTLSSYGIS | VIYSKGRRWFYGDSVK | GRAAGTFDS.
nd (0 of 3 replicates): GFTLNSYGIS | VSYSDGCRTFYGDSVK | GRAAGQFDS.
3.45 (1 of 3 replicates): QFTLNSYGIS | VQYSDGRRTFYGDSVP | GRAAGTFDS.
4.62 (1 of 3 replicates): VFTLNSYGIS | VIYSDGARTFYGDSVK | GRAAYTFDS.
4.18 (2 of 3 replicates): GFTQNEYGIS | VIYSDGRRTFYGDSVK | LRAAGTFDS.
2.23 (3 of 3 replicates): GFTLNCYGIS | IIYSDGRRTFYGDSVK | GRAAGTFDS.
4.27 (2 of 3 replicates): GFTLNSYGIS | VIYSIGRRTFYADSVK | GRAAGTFFS.
4.31 (1 of 3 replicates): GFTLNSYGIS | VSYSDDRRTFYGDSVK | GRAAGTFDS.
4.36 (2 of 3 replicates): GWTLNSYGIS | VIYSDGRRTFQGDSVK | GRAAGTFDS.
nd (0 of 3 replicates): GFTLNSYWIS | VIYYDGRRTFYGDSMK | GRAAGTFDS.
4.07 (1 of 3 replicates): GFYLNSYGIW | VIYSHGRRTFYGDSVK | GRAAGTFDS.
1.30 (3 of 3 replicates): GFTLNSYGIS | VIYSDGCRTFYGDSVK | YRAAGTFDS.
3.69 (2 of 3 replicates): GFTLNSKGIS | VIYSDGRRTFYGDSVK | NRAAGTFDS.
4.34 (2 of 3 replicates): GFTLNSYGIS | VIYSDGRRCFNGDSVK | GRAAGTFDV.
1.80 (3 of 3 replicates): GFTLNSYGIS | VIYSDGRRTFYGDSVR | GRAAGTFFS.
3.78 (2 of 3 replicates): GDTLNSYGIS | EIYSDGRRTGYGDSVK | GRAAGTFDS.

Excerpt, the final 3 entries:

CDR-H1	CDR-H2	CDR-H3	log10 Kd (nM), mean	seen in
GFTLNSYGIS	VIYSDGRRCFNGDSVK	GRAAGTFDV	4.34	2 of 3
GFTLNSYGIS	VIYSDGRRTFYGDSVR	GRAAGTFFS	1.80	3 of 3
GDTLNSYGIS	EIYSDGRRTGYGDSVK	GRAAGTFDS	3.78	2 of 3